Consider two substances from PMC4947123.

The target of experiment [1] is endogenous Fus (mouse (endogenous in N2A, NSC-34, primary mouse cortical neurons)) (UniProt P56959). Kind of experiment: co-IP; total cell lysates treated with RNAse A for 30 min at 4 °C or not, IP with anti-Fus antibodies or IgG, immunoblot, bands quantified; cell line not told for this panel.
Experiment [2] deals with Recombinant FUS (Origene) (UniProt P35637). Kind of experiment: co-IP; recombinant FUS and FMRP mixed in 10 % glycerol, 0.5 % NP40, 100 mM glycine, 25 mM Tris-HCl pH 7.4, 1 h with protein A agarose beads pre-incubated with rabbit anti-FUS antibody; immunoblot; in Fig. 6g total RNA of HEK293 cells added at 0.1 to 62.5 ng/μl, bands quantified.

In experiment [1], “fragile X mental retardation protein (FMRP), endogenous (from UniProt P35922 1-614) (natural protein)” displayed a percent of RNase negative condition (after RNase treatment of the lysate) of 441%.

“Recombinant FMRP (Abnova) (from UniProt Q06787 1-632) (natural protein; other documents disagree on this pair)”: in experiment [2], the percent of FUS-FMRP binding at 0 ng/μl RNA (with 0.1 ng/μl RNA) worked out at 70.4%, the percent of FUS-FMRP binding at 0 ng/μl RNA (with 0.5 ng/μl RNA) amounted to 56.5%, the percent of FUS-FMRP binding at 0 ng/μl RNA (with 2.5 ng/μl RNA) is 23.3% and the percent of FUS-FMRP binding at 0 ng/μl RNA (with 12.5 ng/μl RNA) stood at 11.6%. Moreover, the percent of FUS-FMRP binding at 0 ng/μl RNA (with 62.5 ng/μl RNA) in experiment [2] was determined as 4.6%.
